Values quoted from earlier work as cited in patent publication US8178525B2 (priority 2008, dated 2012).

Amino acid sequences for entries named in this document (tags omitted). A change or cut given only in a name is not applied to a line headed by its entry.
UniProt P00742: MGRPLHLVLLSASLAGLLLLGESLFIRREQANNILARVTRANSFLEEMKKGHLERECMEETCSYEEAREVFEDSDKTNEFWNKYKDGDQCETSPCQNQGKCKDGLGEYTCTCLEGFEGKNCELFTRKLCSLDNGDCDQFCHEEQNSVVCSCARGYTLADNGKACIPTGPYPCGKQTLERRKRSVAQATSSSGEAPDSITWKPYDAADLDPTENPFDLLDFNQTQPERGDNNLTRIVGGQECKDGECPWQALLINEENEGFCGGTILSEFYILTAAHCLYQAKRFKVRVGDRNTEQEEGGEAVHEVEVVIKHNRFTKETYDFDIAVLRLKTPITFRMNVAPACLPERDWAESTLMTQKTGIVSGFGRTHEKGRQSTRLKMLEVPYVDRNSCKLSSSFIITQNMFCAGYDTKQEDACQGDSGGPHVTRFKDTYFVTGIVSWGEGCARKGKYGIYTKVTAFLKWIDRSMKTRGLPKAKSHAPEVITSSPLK

Target: factor Xa (Homo sapiens, UniProt P00742)
Conditions: read-out: Ki value against factor Xa; cited from earlier work

Row | Substance | pKi
1 | antistasin | 10.30
2 | tick anti-coagulant peptide | 9.30

pKi: −log10 of the molar value.
